Test system: mdx mouse model of Duchenne Muscular Dystrophy
Assay: Whole Body Plethysmography respiration monitoring, mdx mice, 22 weeks daily s.q. dosing
Type: in vivo
Conditions: prednisone 1 mg/kg QD s.q., mean ± S.D.
Experimental: Animals. Male C57BL/10SnJ, hereafter referred to as wild-type (WT), and male mdx C57B1/10ScSn-Dmdmdx mice were used in the study. All protocols were approved by the University of Michigan (UM) UCUCA and all studies were performed in facilities run by the University of Michigan Unit of Laboratory Animal Medicine. […] Mice were purchased from Jackson Laboratories and aged in UM facilities. All ages given are ±2 weeks. Mice were randomized into groups upon receipt from Jackson Laboratories in order to minimize the need for additional cages. […] All compounds were administered subcutaneously.
Respiration was monitored using a Buxco Whole Body Plethysmography (WBP) monitoring chambers for mouse Cat. No. PLY4211 (Buxco Research Systems, Wilmington, N.C.) according to the manufacturer's instructions. In this protocol animals are unrestrained and un-anesthetized. […] The mice were monitored for 2 months prior to initiation of treatment to acclimate the mice to the procedure and establish baseline respiratory parameters done with the last weeks reading prior to initiation of dosing. […] Upon initiation of dosing, mice were monitored every 2 weeks. […] Respiration was then monitored for 10 minutes. Each mouse was monitored in the same chamber for each reading throughout the study to minimize variability. […]
Respiration was monitored every 2 weeks by WBP.

Compound: C[C@]12C=CC(=O)C=C1CC[C@@H]1[C@@H]2C(=O)C[C@@]2(C)[C@H]1CC[C@]2(O)C(=O)CO [Prednisone, prednisone]
- Te (expiratory time): 0.149 ± 0.022 s

Reference: patent US20150190421A1, “POLOXAMERS FOR THE IMPROVEMENT OF RESPIRATORY FUNCTION” (PHRIXUS PHARMACEUTICALS, INC., priority 2012, published 2015)
